## Yeast mating assay 2: variants of the scFv Ab-91

Source: Engelhart et al. 2022 (doi:10.1038/s41597-022-01779-4), MIT Lincoln Laboratory and A-Alpha Bio; data file from the FLAb repository.

Binding partner: SARS-CoV-2 spike HR2 peptide, sequence PDVDLGDISGINAS.

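The parent was found by panning a naive human phage display library on the peptide. AAYL51 was designed without a model: most single CDR substitutions and a random sample of double and triple ones. The scFvs were displayed on barcoded MATa yeast, the peptide on MATalpha yeast. After mating in shaken culture at 30 °C for 16 h, diploids were selected and their barcode pairs sequenced. Scores were corrected for input abundance and mapped to Kd with protein pairs of known affinity run in the same pool. The assay was run in three technical replicates.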

Ab-91 is the parent antibody, in scFv form: VL, then three GGGGS repeats, then VH. The light chain is unchanged in all variants.
VL: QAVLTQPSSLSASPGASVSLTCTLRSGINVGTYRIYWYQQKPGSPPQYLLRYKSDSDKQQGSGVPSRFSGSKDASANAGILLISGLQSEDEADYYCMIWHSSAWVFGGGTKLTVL
VH: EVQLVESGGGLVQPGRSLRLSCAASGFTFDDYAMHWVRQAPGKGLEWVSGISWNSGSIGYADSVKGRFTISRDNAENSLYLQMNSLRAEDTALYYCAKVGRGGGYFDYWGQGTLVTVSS

Each variant is given by its three heavy chain CDRs, as the data file delimits them; those of the parent are GFTFDDYAMH, GISWNSGSIGYADSVK, VGRGGGYFDY. Affinities are written as log10 Kd with Kd in nM; a lower number is a better binder. "ND" marks a missing value. The strain was present, yet no cells mated with the target were sequenced in that replicate, which points to weak or no binding. For reference, the parent read 1.86 as the reference entry and 0.88 as a member of this library.

{"CDR-H1": "GFTFDDYAMH", "CDR-H2": "GISWNSWSIGYADSVK", "CDR-H3": "VGRCGGYFDY", "log10 Kd, replicates": "ND / ND / ND", "empty controls": "0/9"}
{"CDR-H1": "GFTFDDYAMH", "CDR-H2": "GISWNSGSIGYADSVK", "CDR-H3": "VGRWGGYFET", "log10 Kd, replicates": "ND / ND / ND", "empty controls": "0/9"}
{"CDR-H1": "GFTFDDYAHH", "CDR-H2": "GISWNSGSIGYADSVK", "CDR-H3": "VDRGGGYWDY", "log10 Kd, replicates": "4.19 / ND / ND", "empty controls": "1/9 (4.44)"}
{"CDR-H1": "GFTFDDYAMH", "CDR-H2": "GISWNSGSIGSAMSVK", "CDR-H3": "VGRGGGYSDY", "log10 Kd, replicates": "ND / ND / ND", "empty controls": "0/9"}
{"CDR-H1": "GFTFDDYAMH", "CDR-H2": "LISWNSGSIGYADSVK", "CDR-H3": "VGHGGGYFDY", "log10 Kd, replicates": "4.72 / 4.39 / ND", "empty controls": "0/9"}
{"CDR-H1": "LLTFDDYAMH", "CDR-H2": "GISWNSGPIGYADSVK", "CDR-H3": "VGRGGGYFDY", "log10 Kd, replicates": "ND / ND / ND", "empty controls": "0/9"}
{"CDR-H1": "GFTLDTYAMH", "CDR-H2": "GISWNSGSIGYADSKK", "CDR-H3": "VGRGGGYFDY", "log10 Kd, replicates": "ND / ND / ND", "empty controls": "1/9 (2.86)"}
{"CDR-H1": "GFTFDQYAMH", "CDR-H2": "GISWNSISIGYADSVK", "CDR-H3": "VGRGGGYFDD", "log10 Kd, replicates": "1.16 / 1.12 / 0.81", "empty controls": "1/9 (4.24)"}
{"CDR-H1": "GFTFDCYAMH", "CDR-H2": "GISCNSGSIGYDDSVK", "CDR-H3": "VGRGGGYFDY", "log10 Kd, replicates": "5.75 / 3.82 / ND", "empty controls": "2/9 (4.11)"}
{"CDR-H1": "GRTFDDYAMH", "CDR-H2": "EISWNSGSIGYADSVR", "CDR-H3": "VGRGGGYFDY", "log10 Kd, replicates": "ND / ND / ND", "empty controls": "0/9"}
{"CDR-H1": "GFIFDDYAMH", "CDR-H2": "GISWNSGGIGYADSVK", "CDR-H3": "VGRCGGYFDY", "log10 Kd, replicates": "2.62 / 3.06 / 2.13", "empty controls": "1/9 (3.96)"}
{"CDR-H1": "GFTFDDYAMH", "CDR-H2": "GISHNSGSIGYADSVK", "CDR-H3": "VGRGGGYFDV", "log10 Kd, replicates": "1.01 / 1.08 / 0.34", "empty controls": "5/9 (5.01)"}
{"CDR-H1": "GFTFDDYAMH", "CDR-H2": "GVSWNSGSIGYSDSEK", "CDR-H3": "VGRGGGYFDY", "log10 Kd, replicates": "ND / ND / ND", "empty controls": "0/9"}
{"CDR-H1": "GFTFDDYAMD", "CDR-H2": "GISWNSGSIGYRDSVK", "CDR-H3": "VGRGGGYIDY", "log10 Kd, replicates": "ND / ND / ND", "empty controls": "1/9 (5.04)"}
{"CDR-H1": "GFTFDDYAMH", "CDR-H2": "GISTNSGSIGYADSVK", "CDR-H3": "VGRGDAYFDY", "log10 Kd, replicates": "ND / ND / ND", "empty controls": "0/9"}
{"CDR-H1": "GMTFTDYAMH", "CDR-H2": "GISWNSGSIGYADSVK", "CDR-H3": "GGRGGGYFDY", "log10 Kd, replicates": "ND / ND / 3.13", "empty controls": "2/9 (2.34)"}
{"CDR-H1": "GFTFDDYAMH", "CDR-H2": "GMSWNVGDIGYADSVK", "CDR-H3": "VGRGGGYFDY", "log10 Kd, replicates": "ND / ND / ND", "empty controls": "1/9 (4.35)"}
{"CDR-H1": "GFTFDDYAMH", "CDR-H2": "GIKVNSGSIGVADSVK", "CDR-H3": "VGRGGGYFDY", "log10 Kd, replicates": "5.38 / 6.17 / ND", "empty controls": "3/9 (4.20)"}
{"CDR-H1": "GFTFDDYAMH", "CDR-H2": "GWSWNSGSCGYADSWK", "CDR-H3": "VGRGGGYFDY", "log10 Kd, replicates": "ND / ND / ND", "empty controls": "2/9 (4.27)"}
{"CDR-H1": "GHTFDDYAMH", "CDR-H2": "GISWNSGSIGYADSVK", "CDR-H3": "VGRGGGYFDI", "log10 Kd, replicates": "2.03 / ND / ND", "empty controls": "0/9"}
{"CDR-H1": "GFTFDEMAMH", "CDR-H2": "GISWNSGSIPYADSVK", "CDR-H3": "VGRGGGYFDY", "log10 Kd, replicates": "ND / 4.68 / ND", "empty controls": "3/9 (3.98)"}
{"CDR-H1": "GFTFDDYAMH", "CDR-H2": "GISWNSGSIGYADSEK", "CDR-H3": "VMRGGGYFDY", "log10 Kd, replicates": "4.49 / 5.92 / 4.48", "empty controls": "3/9 (4.78)"}
{"CDR-H1": "GFTFDDYLMH", "CDR-H2": "GSSWNSGSIGYADSVK", "CDR-H3": "VGMGGGYFDY", "log10 Kd, replicates": "4.85 / ND / ND", "empty controls": "2/9 (4.92)"}
{"CDR-H1": "GFTFDDYAMH", "CDR-H2": "GISQNSGSIRYADSVK", "CDR-H3": "VGRGGGTFDY", "log10 Kd, replicates": "ND / 4.21 / 3.86", "empty controls": "1/9 (3.12)"}
{"CDR-H1": "GFTFDDCRMH", "CDR-H2": "GISWNSGSIGYALSVK", "CDR-H3": "VGRGGGYFDY", "log10 Kd, replicates": "ND / ND / ND", "empty controls": "0/9"}
{"CDR-H1": "GKTFKDYAMH", "CDR-H2": "GISWNSGSIGYADSVK", "CDR-H3": "VVRGGGYFDY", "log10 Kd, replicates": "ND / 5.73 / ND", "empty controls": "1/9 (4.03)"}

The first 3 entries again:

{"CDR-H1": "GFTFDDYAMH", "CDR-H2": "GISWNSWSIGYADSVK", "CDR-H3": "VGRCGGYFDY", "log10 Kd, replicates": "ND / ND / ND", "empty controls": "0/9"}
{"CDR-H1": "GFTFDDYAMH", "CDR-H2": "GISWNSGSIGYADSVK", "CDR-H3": "VGRWGGYFET", "log10 Kd, replicates": "ND / ND / ND", "empty controls": "0/9"}
{"CDR-H1": "GFTFDDYAHH", "CDR-H2": "GISWNSGSIGYADSVK", "CDR-H3": "VDRGGGYWDY", "log10 Kd, replicates": "4.19 / ND / ND", "empty controls": "1/9 (4.44)"}

Background: pairings of library AAYL51 with three empty control strains gave a value in 21% of cases (median 4.54, 5th percentile 3.26). Values in that range, when seen in few replicates, are hard to tell from nonspecific mating. The control count says in how many pairings with the empty strains this scFv gave a signal, with their mean in brackets.